{"sequences": {"note": "Amino acid sequences for entries named in this document (tags omitted). Residues count along the entry.", "UniProt P12821, 30-1306 limits assumed": "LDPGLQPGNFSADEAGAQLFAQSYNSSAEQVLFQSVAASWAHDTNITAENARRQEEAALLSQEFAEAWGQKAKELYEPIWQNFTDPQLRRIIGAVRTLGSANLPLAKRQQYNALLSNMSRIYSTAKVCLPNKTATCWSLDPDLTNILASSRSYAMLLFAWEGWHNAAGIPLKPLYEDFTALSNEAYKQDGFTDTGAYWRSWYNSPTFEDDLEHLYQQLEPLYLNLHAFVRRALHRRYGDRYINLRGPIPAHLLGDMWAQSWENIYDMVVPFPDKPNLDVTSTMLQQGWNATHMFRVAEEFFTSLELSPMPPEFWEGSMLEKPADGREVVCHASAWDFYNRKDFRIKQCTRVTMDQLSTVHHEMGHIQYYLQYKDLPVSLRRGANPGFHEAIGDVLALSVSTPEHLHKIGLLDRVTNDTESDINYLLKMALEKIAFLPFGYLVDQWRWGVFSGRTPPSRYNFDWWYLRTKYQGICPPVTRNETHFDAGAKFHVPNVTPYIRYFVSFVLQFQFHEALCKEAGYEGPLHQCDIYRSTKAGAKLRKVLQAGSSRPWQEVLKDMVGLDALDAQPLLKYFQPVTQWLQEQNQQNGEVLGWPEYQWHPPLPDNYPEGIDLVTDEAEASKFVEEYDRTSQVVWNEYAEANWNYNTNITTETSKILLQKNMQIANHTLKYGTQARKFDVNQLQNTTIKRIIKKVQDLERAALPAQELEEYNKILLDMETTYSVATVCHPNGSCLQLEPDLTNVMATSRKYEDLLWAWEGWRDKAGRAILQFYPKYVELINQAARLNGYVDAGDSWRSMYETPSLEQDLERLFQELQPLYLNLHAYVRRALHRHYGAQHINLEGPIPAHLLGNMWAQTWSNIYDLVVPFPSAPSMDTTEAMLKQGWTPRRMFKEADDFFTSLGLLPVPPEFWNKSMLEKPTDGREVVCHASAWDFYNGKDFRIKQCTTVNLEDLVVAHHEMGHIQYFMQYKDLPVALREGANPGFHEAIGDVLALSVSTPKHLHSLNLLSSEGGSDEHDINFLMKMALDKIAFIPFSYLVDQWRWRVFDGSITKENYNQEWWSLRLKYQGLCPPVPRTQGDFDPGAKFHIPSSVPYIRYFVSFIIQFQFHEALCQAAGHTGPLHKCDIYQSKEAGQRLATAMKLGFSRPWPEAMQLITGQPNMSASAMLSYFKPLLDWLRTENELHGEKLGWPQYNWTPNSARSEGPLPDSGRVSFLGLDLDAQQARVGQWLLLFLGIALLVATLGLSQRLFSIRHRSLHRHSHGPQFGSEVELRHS"}, "source": "paper PMC10648141", "about": "“Screening of Oral Potential Angiotensin-Converting Enzyme Inhibitory Peptides from Zizyphus jujuba Proteins Based on Gastrointestinal Digestion In Vivo” (International Journal of Molecular Sciences, 2023)", "origin": "cited, not measured here", "target": "ACE (Homo sapiens, UniProt P12821)", "settings": "ACE-inhibitory activity used as 3D-QSAR input (training set 34, test set 12 marked *); ref our group and the DFBP database; cited from earlier work"}
{"smiles": "N[C@@H](CS)C(=O)N[C@@H](CS)C(=O)O", "values": [{"measurement": "PIC50", "value": -0.99}]}
